36 molecules from PubChem BioAssay AID1477 (National Center for Advancing Translational Sciences (NCATS), 2009) can be followed below.

By UniProt entry, the sequences of proteins in these tests, tags left out.
UniProt Q01196, whole entry partner: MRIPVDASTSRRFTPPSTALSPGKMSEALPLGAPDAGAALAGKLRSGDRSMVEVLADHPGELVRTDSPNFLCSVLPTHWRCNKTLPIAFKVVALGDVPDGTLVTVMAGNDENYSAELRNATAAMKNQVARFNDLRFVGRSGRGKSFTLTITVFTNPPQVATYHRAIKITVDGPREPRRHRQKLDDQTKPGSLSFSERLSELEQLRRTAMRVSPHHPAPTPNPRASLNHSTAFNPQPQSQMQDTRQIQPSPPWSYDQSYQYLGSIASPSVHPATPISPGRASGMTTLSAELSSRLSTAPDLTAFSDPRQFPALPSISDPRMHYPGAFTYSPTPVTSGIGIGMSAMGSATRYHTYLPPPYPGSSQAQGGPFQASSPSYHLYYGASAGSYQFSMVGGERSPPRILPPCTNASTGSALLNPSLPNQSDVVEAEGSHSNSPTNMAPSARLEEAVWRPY
UniProt Q13951, whole entry: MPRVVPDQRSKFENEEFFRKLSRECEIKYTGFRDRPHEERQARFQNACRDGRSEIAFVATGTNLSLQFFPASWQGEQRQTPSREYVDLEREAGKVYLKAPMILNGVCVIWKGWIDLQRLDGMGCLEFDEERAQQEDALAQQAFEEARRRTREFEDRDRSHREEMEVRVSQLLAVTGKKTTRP

This is a selection; strong and weak results do not stand in their true shares. Results filed as inconclusive are left out. Some structures show a salt or complex split into parts, the way the source records it. Activity calls are given as the source filed them. Calls come from the whole dose curve; as a rule, active = well fitted curve in the direction sought with a large enough effect; inconclusive = small, poorly fitted or top-dose-only effect, or effect the other way, or another doubt; inactive = no such curve, though single readings can be large or run the other way.

The target in the test is Runt-related transcription factor 1 (Homo sapiens) + Core-binding factor subunit beta (Homo sapiens) (UniProt Q01196+Q13951). The experiment in a line: qHTS Assay for Compounds Blocking the Interaction Between CBF-beta and RUNX1 for the Treatment of Acute Myeloid Leukemia. Note: % of control where 0% means no effect. The settings on record: AlphaScreen CBFb-His/RUNX1-biotin binding, biochemical; at 59.8 µM (top of the series) unless noted. A general note: In qHTS, concentration-response curves come from the screen itself.
Take `CN(C)c1ccc(C(=O)NCC2(N3CCCCC3)CCCCC2)cc1`: the activity, negative = inhibition was inactive: 8.49%.

For the molecule `CCN1CCC(Nc2cccc(F)c2)CC1`, the activity, negative = inhibition is inactive: 0.775%.

Take `Fc1ccccc1NC1CCN(Cc2ccccc2)CC1`: the activity, negative = inhibition was inactive: -3.14%.

As for `CCCOc1ccc(C)cc1CN(CCCl)CCCl`, the activity, negative = inhibition is inactive: 16.5%.

In the case of `CCC(CO)(C(=O)OC1CN2CCC1CC2)c1ccccc1` (stereo unspecified), the activity, negative = inhibition was inactive: 1%.

`COc1cc(OC)cc(C(=O)NCC2(N3CCOCC3)CCCCC2)c1`: the activity, negative = inhibition is inactive: 3.97%.

Regarding `CC(C)(C)OC(=O)N1CCC(Nc2ccccc2)CC1`, the activity, negative = inhibition was inactive: 0.584%.

With `CCOc1ncccc1C(=O)NCC1(N2CCOCC2)CCCCC1`, the activity, negative = inhibition is inactive: 4.68%.

For the molecule `O=C(OC1CN2CCC1CC2)C1c2ccccc2C=Cc2ccccc21` (stereo unspecified), the activity, negative = inhibition was inactive: 4.16%.

For `O=C(O)c1cccc(Nc2c([N+](=O)[O-])cc([N+](=O)[O-])cc2[N+](=O)[O-])c1`, the activity, negative = inhibition is inactive: 12.9%.

Take `N/C(=N\O)c1c(N)no[n+]1[O-]`: the activity, negative = inhibition is inactive: -0.221%.

Regarding `COc1ccc(C(=O)NCC2(N3CCOCC3)CCCCC2)cc1OC`, the activity, negative = inhibition is inactive: 1.02%.

As for `c1ccc(CN2CCC(Nc3ccccc3)CC2)cc1`, the activity, negative = inhibition was inactive: -1.44%.

With `ClCCOP(OCCCl)OCCCl`, the activity, negative = inhibition is inactive: -1% [at 21.7 µM].

In the case of `CCOC(=O)C(CC)C1=NC(C)(C)Cc2ccccc21.O=[N+]([O-])c1cc([N+](=O)[O-])c(O)c([N+](=O)[O-])c1` (stereo unspecified), the activity, negative = inhibition was inactive: 9.93%.

With `N#Cc1ccc(C(=O)NCC2(N3CCCCC3)CCCCC2)cc1`, the activity, negative = inhibition was inactive: -17.3%.

As for `COc1ccc(NC2CCN(C(=O)OC(C)(C)C)CC2)cc1`, the activity, negative = inhibition is inactive: 3.78%.

Take `CN1CCN(CCOC(=O)C(O)(c2ccccc2)c2ccccc2)CC1`: the activity, negative = inhibition was inactive: 1.37%.

Regarding `O=C(NCC1(N2CCOCC2)CCCCC1)c1cc(=O)[nH]c2ccccc12`, the activity, negative = inhibition was inactive: 2.08%.

For `O=[N+]([O-])c1cc([N+](=O)[O-])c(NCC2CCS(=O)(=O)C2)c([N+](=O)[O-])c1` (stereo unspecified), the activity, negative = inhibition is inactive: -27.1%.

In the case of `O=C(NCC1(N2CCCCC2)CCCCC1)c1cccc([N+](=O)[O-])c1`, the activity, negative = inhibition is inactive: 19.2%.

Regarding `N#CC1(Nc2ccccc2)CCN(CCc2ccccc2)CC1`, the activity, negative = inhibition was inactive: -3.73%.

`COc1ccc2c(c1O)-c1c(O)c(OC)cc3c1[C@H](C2)[N+](C)(C)CC3.O=[N+]([O-])c1cc([N+](=O)[O-])c([O-])c([N+](=O)[O-])c1[O-]`: the activity, negative = inhibition was inactive: 0.0839%.

As to `O=C(OC1CN2CCC1CC2)c1ccc([N+](=O)[O-])cc1` (stereo unspecified), the activity, negative = inhibition was inactive: 1.23%.

Regarding `CCOP(=O)(Cl)Cl`, the activity, negative = inhibition was inactive: 7.75% [at 21.7 µM].

Consider `COc1ccc(CN(CCCl)CCCl)cc1Cl`, for which the activity, negative = inhibition is inactive: -1.51%.

With `CN(C)c1cccc(C(=O)NCC2(N3CCCCC3)CCCCC2)c1`, the activity, negative = inhibition is inactive: 5.2%.

For `CC(C)c1ccc(NC2CCN(C(=O)OC(C)(C)C)CC2)cc1`, the activity, negative = inhibition is inactive: 7.31%.

Turning to `CCOC(=O)N1CCC(Nc2ccc(OC)cc2)CC1`, the activity, negative = inhibition was inactive: 5.98%.

Regarding `O=C(OC1CN2CCC1CC2)C1c2ccccc2Oc2ccccc21` (stereo unspecified), the activity, negative = inhibition was inactive: 7.22%.

Regarding `N#CC1(Nc2ccccc2)CCN(Cc2ccccc2)CC1`, the activity, negative = inhibition is inactive: 2.76%.

With `O=C(NCC1(N2CCOCC2)CCCCC1)c1cc2ccccc2o1`, the activity, negative = inhibition is inactive: -3.61%.

For the molecule `COc1ccc(C(=O)NCC2(N3CCCCC3)CCCCC2)c(OC)c1OC`, the activity, negative = inhibition is inactive: -2.37%.

`Cc1ccc(OCC(C)C)c(CN(CCCl)CCCl)c1`: the activity, negative = inhibition was inactive: 5.23%.

For `COc1ccc(NC2CCN(CCc3ccccc3)CC2)c(OC)c1`, the activity, negative = inhibition is inactive: -8.89%.

Take `CCOc1ccc(C)cc1CN(CCCl)CCCl`: the activity, negative = inhibition is inactive: 7.86%.
